Each structure is given as a SMILES string. pIC50: −log10 of the molar value. Bounds are passed on as bounds.

Protein sequences, listed by entry. Tags and fused reporters are not part of them. Lines headed by an entry give the natural chain unless they say otherwise; changes in a name come on top.
UniProt P49759: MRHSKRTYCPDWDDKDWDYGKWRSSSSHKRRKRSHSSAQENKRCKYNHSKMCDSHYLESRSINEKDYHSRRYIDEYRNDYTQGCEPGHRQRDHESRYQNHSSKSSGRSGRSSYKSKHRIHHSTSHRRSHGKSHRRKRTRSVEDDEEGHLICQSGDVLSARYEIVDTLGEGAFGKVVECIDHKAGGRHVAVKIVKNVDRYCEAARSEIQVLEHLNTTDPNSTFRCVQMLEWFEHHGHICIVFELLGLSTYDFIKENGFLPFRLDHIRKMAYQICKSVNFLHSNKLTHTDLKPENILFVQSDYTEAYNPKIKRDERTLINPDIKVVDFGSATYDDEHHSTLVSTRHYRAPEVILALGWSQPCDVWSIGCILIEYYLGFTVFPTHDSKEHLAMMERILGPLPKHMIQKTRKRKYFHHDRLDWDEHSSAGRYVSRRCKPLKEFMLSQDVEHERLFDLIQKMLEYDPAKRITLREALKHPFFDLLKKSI
UniProt P49761, whole entry, species assumed: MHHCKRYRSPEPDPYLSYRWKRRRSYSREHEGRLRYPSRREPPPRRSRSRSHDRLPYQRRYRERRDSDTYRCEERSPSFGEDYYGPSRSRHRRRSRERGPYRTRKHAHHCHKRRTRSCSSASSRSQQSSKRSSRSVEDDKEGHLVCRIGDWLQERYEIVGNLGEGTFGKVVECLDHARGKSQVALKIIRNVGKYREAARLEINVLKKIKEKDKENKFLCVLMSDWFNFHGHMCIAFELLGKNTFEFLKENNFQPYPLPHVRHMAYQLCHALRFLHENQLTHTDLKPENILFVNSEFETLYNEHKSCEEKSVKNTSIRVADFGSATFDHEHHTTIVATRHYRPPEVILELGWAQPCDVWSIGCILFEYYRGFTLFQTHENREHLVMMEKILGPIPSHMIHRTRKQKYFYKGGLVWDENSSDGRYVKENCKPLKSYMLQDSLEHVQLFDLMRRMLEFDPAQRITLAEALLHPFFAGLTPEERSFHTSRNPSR

Our source for the IC50 values is patent US9650684B2, “Methods of identifying and using general or alternative splicing inhibitors” (The Trustees of the University of Pennsylvania, priority 2009, dated 2017).

For one assay, the target named is Clk1 (Homo sapiens, UniProt P49759). The assay is described as follows: In vitro kinase profiling. It is filed as biochemical. On the procedure:
(§1) Several activated recombinant kinases including Clk1-4, SRPK1-2, JNK and ERK were incubated with a synthetic SR-rich substrate peptide in the present of 50 μM ATP and ^32P-ATP cocktail and kinase assay buffer (5 mM MOPS, pH 7.2, 2.5 mM β-glycerol-phosphate, 5 mM MgCl2, 1 mM EGTA, 0.4 mM EDTA, 0.05 mM DTT) for 20 minutes. Either DMSO or chlorhexidine was also added at various concentrations. The assay was terminated by spotting 10 μl of the reaction mixture onto phosphocellulose P81 plate, which was washed 3 times for 15 minutes each in a 1% phosphoric acid solution. The radioactivity on the P81 plate was counted in the presence of scintillation fluid in a TriLux scintillation counter.
(§2) . Therefore, its effects were tested on several kinases that are known to target SR proteins. […] . Whereas the other SR protein kinases (SRPK1 and SRPK2) as well as other unrelated kinases (ERK1 and JNK1) were not targeted by chlorhexidine (FIG. 7B). […] .

Another assay concerns the target Clk3 (Homo sapiens, UniProt P49761). Nature of the assay: In vitro kinase profiling. It counts as biochemical. How it is done:
as §1, §2

For orientation: pIC50 means the IC50 on a negative log10 scale, so that one unit is a factor of ten. High values mean a small IC50, low ones a large IC50. Take `[H]/N=C(\N/C(=N/[H])NCCCCCCNC(=N)NC(=N)Nc1ccc(Cl)cc1)Nc1ccc(Cl)cc1` [chlorhexidine, (1E)-2-[6-[[amino-[[amino-(4-chloroanilino)methylidene]amino]methylidene]amino]hexyl]-1-[amino-(4-chloro-anilino)methylidene]guanidine]: the pIC50 against Clk1 was less than 4.30; against Clk3, 4.82.
